Measured values: patent US20150342954A1, “2-BENZYL, 3-(PYRIMIDIN-2-YL) SUBSTITUTED PYRAZOLES USEFUL AS SGC STIMULATORS” (IRONWOOD PHARMACEUTICALS, INC., priority 2011, published 2015)

How the values were obtained:
[1] = target: T1, Human soluble guanylate cyclase enzyme (hsGC) (Homo sapiens, UniProt Q02108+Q02153); assay: Purified human sGC enzyme synergy assay in the presence of 1 μM sodium nitroprusside (SNP); format: biochemical; conditions: compound at 30 μM, presence of 1 μM SNP; Table 5A
T1 construct: purchased Enzo Inc. ALX-201-177
T1 sequence (Q02153 1-619): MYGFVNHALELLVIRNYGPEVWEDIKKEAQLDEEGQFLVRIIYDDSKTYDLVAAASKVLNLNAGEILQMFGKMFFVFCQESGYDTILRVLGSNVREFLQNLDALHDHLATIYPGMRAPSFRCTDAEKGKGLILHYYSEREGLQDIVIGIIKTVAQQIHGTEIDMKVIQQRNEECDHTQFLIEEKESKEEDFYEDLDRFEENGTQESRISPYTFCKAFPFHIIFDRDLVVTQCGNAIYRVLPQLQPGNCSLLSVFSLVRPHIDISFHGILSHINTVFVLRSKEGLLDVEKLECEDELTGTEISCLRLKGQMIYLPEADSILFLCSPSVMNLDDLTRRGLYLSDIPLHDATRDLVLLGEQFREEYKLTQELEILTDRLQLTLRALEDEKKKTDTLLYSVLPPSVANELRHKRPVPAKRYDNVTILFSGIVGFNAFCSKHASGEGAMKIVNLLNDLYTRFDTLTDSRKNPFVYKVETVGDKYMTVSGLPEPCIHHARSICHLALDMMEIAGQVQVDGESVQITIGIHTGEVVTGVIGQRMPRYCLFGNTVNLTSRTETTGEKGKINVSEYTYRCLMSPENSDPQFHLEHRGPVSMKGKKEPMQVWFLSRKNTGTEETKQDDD
T1 sequence (Q02108 1-690): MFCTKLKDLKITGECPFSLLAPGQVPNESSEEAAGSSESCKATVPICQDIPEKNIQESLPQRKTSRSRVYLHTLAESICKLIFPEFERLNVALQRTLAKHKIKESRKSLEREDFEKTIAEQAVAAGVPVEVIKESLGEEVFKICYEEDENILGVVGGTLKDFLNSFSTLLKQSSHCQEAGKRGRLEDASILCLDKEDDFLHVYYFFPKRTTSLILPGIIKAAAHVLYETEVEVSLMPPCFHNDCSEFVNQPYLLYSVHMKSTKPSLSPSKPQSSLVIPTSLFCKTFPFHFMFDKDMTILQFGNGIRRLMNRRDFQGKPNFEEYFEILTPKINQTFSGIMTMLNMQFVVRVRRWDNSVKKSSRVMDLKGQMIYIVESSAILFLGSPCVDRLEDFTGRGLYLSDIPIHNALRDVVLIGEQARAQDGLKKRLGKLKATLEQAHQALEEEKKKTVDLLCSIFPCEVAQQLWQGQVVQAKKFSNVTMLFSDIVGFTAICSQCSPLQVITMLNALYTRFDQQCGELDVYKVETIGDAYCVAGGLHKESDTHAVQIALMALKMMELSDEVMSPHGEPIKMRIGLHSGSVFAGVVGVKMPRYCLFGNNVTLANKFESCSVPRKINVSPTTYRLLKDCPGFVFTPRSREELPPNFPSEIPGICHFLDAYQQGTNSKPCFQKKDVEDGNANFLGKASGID
Description: (§1) Human soluble guanylate cyclase enzyme (hsGC) obtained from Enzo Inc. (P/N: ALX-201-177) was used to evaluate the activity of test compounds. The assay reactions contained 0.1 M Tris (pH 8.0), 0.5 mg/mL BSA (pH 8.0), 2 mM DTT, 2 mM MgCl2, 300 μM GTP, 1 mM 3-isobutyl-1-methylxanthine (IBMX) and 5 ng human soluble guanylate cyclase enzyme. Test compounds in DMSO were then added (2 μL, 10 or 30 μM final concentration) and incubated (200 μL, 96-well plate format) at 37° C. for 30 minutes. The controls were carried out using 2 μL DMSO. After the 30 minute incubation, the reaction was stopped with the addition of 200 μl of cold methanol. The plate was then centrifuged at 3,200 rpm for 10 minutes at room temperature. Supernatants (200 μL) were collected and transferred to a new 96 well plate for analysis.
An 8 point cGMP (Sigma-Aldrich P/N: G6129) standard curve was prepared in assay buffer ranging from 0.156-20 μM. Samples for the cGMP standard curve were then diluted with an equal volume of methanol resulting in final cGMP concentrations of 0.078-10 μM.
The cGMP standard curve was generated using GraphPad Prism Software.
Calculations: Specific Activity was determined by the amount of cGMP formed (nmoles) per mg of sGC per min. Enzyme “fold-change” was calculated by dividing Specific Activity for test compounds by Specific Activity of DMSO controls. […]

[2] = target: T1, Human soluble guanylate cyclase enzyme (hsGC); assay: Purified human sGC enzyme activity assay (without SNP); format: biochemical; conditions: compound at 30 μM, absence of SNP; fold over DMSO control; Table 5A
Description: Biological Activity Measurements by the Purified Human sGC Enzyme Activity Assay
as §1
An 8 point cGMP (Sigma-Aldrich P/N: G6129) standard curve was prepared in assay buffer ranging from 0.156-20 μM. Samples for the cGMP standard curve were then diluted with an equal volume of methanol resulting in final cGMP concentrations of 0.078-10 μM. […]
Calculations: Specific Activity was determined by the amount of cGMP formed (nmoles) per mg of sGC per min. Enzyme “fold-change” was calculated by dividing Specific Activity for test compounds by Specific Activity of DMSO controls.

CN(C)c1nc(-c2cc(-c3ccon3)n(Cc3ccccc3F)n2)ncc1S(=O)(=O)O [Compound 51]
Enzyme Activity (increase at 30 μM with SNP) [1]: A (no increase to <2 fold increase)
Enzyme Activity (increase at 30 μM without SNP) [2]: A (no increase to <2 fold increase)
